Experimental data taken from patent US20030110518A1, “Melanocortin-5 receptor sequences and uses thereof” (priority 2001, published 2003).

Chains of the proteins cited; added tags and fusions are not shown. Residues count along the entry.
UniProt A0A8I3MI44, 1-325: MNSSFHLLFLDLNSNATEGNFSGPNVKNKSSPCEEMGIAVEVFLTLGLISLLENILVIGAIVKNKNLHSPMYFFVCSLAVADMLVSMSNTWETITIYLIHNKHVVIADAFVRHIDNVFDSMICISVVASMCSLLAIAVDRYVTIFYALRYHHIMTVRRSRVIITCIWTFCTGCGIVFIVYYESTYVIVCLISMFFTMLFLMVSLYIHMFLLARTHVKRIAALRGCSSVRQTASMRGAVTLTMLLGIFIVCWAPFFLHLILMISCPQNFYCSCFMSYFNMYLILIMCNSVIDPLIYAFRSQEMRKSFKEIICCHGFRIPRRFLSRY

Molecular target: canine MC5R (Canis lupus familiaris, UniProt A0A8I3MI44)
Conditions: read-out: EC50 of α-MSH stimulated cAMP accumulation; clone C9, canine MC5R/HEK293 cells

With “α-melanocyte stimulating hormone [α-MSH]” as the substance, how does the EC50 read?
The EC50 was 5 nM.
